# ChEMBL document CHEMBL5380833, “Discovery of Potent and Highly Selective Interleukin-2-Inducible T-Cell Kinase Degraders with In Vivo Activity” (J Med Chem, 2023)
# Protein sequences, listed by entry. Tags and fused reporters are not part of them. Lines headed by an entry give the natural chain unless they say otherwise; changes in a name come on top.
# UniProt Q08881: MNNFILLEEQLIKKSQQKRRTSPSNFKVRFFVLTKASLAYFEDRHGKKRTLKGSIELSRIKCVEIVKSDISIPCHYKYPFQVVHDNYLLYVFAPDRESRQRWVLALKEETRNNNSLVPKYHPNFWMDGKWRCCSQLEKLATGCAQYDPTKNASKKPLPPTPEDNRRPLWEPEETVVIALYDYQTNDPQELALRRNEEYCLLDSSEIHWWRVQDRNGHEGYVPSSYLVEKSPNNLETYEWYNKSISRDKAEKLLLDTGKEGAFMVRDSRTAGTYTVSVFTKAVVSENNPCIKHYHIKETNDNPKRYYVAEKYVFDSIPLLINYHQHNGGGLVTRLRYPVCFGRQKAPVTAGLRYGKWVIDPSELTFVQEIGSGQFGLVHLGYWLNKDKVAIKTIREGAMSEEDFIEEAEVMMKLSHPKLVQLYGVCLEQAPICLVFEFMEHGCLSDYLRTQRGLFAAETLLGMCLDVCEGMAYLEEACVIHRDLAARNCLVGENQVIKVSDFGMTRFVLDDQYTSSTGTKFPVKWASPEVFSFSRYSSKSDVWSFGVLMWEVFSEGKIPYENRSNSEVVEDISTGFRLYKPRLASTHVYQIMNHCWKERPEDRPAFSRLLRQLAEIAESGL
# UniProt Q96SW2: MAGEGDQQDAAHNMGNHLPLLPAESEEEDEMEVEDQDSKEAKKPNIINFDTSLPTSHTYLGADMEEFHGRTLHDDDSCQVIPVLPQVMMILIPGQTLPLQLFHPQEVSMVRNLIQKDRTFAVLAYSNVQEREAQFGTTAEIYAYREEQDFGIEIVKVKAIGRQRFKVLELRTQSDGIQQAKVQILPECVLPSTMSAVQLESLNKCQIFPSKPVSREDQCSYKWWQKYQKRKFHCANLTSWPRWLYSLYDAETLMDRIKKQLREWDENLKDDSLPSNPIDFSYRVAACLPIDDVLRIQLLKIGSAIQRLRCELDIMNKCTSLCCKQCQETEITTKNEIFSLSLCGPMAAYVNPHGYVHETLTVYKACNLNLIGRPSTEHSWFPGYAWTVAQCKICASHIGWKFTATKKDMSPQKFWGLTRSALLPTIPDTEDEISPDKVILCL
# Target: Protein cereblon/Tyrosine-protein kinase ITK/TSK (Homo sapiens, UniProt Q08881+Q96SW2)
# Assay: PROTAC activity at CRBN/ITK in human Jurkat cells assessed as maximum degradation at 0.01 to 10 uM by Western blot analysis relative to control
# Format: cell-based
# Settings: dose 0.01-10 µM
smiles,measurement,value
CN(CCCCCC(=O)Nc1ccc2c(c1)C(=O)N(C1CCC(=O)N(C)C1=O)C2=O)CC[C@@H](c1ccccc1)n1cc(NC(=O)c2n[nH]c3c2CCC(C)(C)C3)cn1 (stereo partly specified),Emax,inactive

# Calls of active or inactive are those of the source. The calls are words filed in the database; no cut-off is given here.
